# scFv variants of Ab-14 (light chain) against a SARS-CoV-2 spike peptide

Reference: Li et al. 2023, doi:10.1038/s41467-023-39022-2. File: FLAb, binding data.

Binding partner: SARS-CoV-2 spike HR2 peptide, sequence PDVDLGDISGINAS.

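The starting antibody came from a phage panning campaign against this peptide. These sequences belong to a second round, designed from the earlier measurements on random variants of the parent. Group labels follow the data file (En: ensemble of fine-tuned language models; GP: Gaussian process model; HC: hill climbing; Gen: genetic algorithm; Gibbs: Gibbs sampling; a sequence that several methods proposed may carry one label only). Affinity was read by AlphaSeq, a pooled yeast mating assay with surface-displayed partners. Mating (16 h, 30 °C) was followed by selection of diploids and sequencing of their barcodes. Read counts were normalised to the haploid input and turned into Kd by a linear fit to BCL2-family pairs of known affinity, for each replicate. Mating was done six times.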

Parent: Ab-14, a human scFv built as VH, a 15-residue (Gly4Ser)3 linker, VL. Only the CDRs of the light chain vary.
VH: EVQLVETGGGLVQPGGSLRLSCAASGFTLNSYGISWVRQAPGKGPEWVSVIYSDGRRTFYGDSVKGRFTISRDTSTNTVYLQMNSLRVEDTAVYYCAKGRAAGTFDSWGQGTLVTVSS
VL: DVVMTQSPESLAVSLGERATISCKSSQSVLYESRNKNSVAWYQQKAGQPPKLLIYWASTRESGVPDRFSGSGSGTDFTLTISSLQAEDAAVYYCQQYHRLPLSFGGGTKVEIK

Each variant is given by its three light chain CDRs, as the data file delimits them; those of the parent are KSSQSVLYESRNKNSVA, WASTRES, QQYHRLPLS. Variants here have more than six changes. The Kd shown is the geometric mean over detected replicates; a lower Kd is a better binder. Where no diploid with the target was found in any replicate, the entry reads "nd": below detection, most likely a poor binder, though not proof of it. Values of this round are not directly comparable with the first-round values of the same sequences. The authors averaged sequences with at least three values out of six and counted those with two or fewer as poor binders. Background: pairings of all light chain designs with three empty control strains gave a value in 4% of cases (median 430 nM, 5th percentile 38 nM). Values in that range, when seen in few replicates, are hard to tell from nonspecific mating.

- KFGNGVHVESIMSNSIA, QTSTREE, QQYDRLPLS [En_HC] = 3.9 nM (6 of 6 replicates)
- QLMVFNLQAGSTQAAIA, DASHSTD, QQYARLPLM [En_Gibbs] = 2.2 nM (6 of 6 replicates)
- ILLQVSTEHGAALNNIA, EGARRLD, QQYARLPLV [En_Gibbs] = 19 nM (6 of 6 replicates)
- KMETHSQDNRLDWSAIA, EAQTIYQ, QQYARLPLS [En_Gibbs] = 7.9 nM (3 of 6 replicates)
- KLMMQMQEIGIMKNNIA, NLEIGAR, QQYAQLPLV [En_Gibbs] = nd (0 of 6 replicates)
- FLAYASDQTGLQKNNIA, QVNLKEN, QQYERLPLA [En_Gibbs] = 28 nM (6 of 6 replicates)
- KLMQSDLYESRMQNNVA, DASTRME, QQYHRLPLS [GP_Gibbs] = 760 pM (6 of 6 replicates)
- KLGMTVGYEQRNKSRVA, DNNTRES, QQYDRLPLS [En_HC] = 1.0 µM (1 of 6 replicates)
- KVEGGVMMGSRNKNSVA, HASVREQ, QQYHRLPLS [GP_Gibbs] = 3.2 nM (6 of 6 replicates)
- KLSSFHNVETINKSNVA, EMVTREN, QQYDRLPLS [En_HC] = 220 nM (3 of 6 replicates)
- KIGNMVDYMSATHSSVA, QTSTREE, QQYHRLPLS [En_HC] = 1.8 nM (6 of 6 replicates)
- QLELVQSNDTISENSVA, HAEVSGR, QQYSQLPLI [En_Gibbs] = nd (0 of 6 replicates)
- KVSEFMKGLMMRTDSIA, DNVTRQN, QQYDRLPLS [En_Gen] = 140 nM (6 of 6 replicates)
- SVFMELAEEKNSTRNIA, DASMRLA, QQYVRLPLG [En_Gibbs] = 13 nM (6 of 6 replicates)
- MLGESYGNMVQKKSSIA, DNSTREA, QQYDRLPLS [En_Gen] = 39 nM (6 of 6 replicates)
- KLSMQDEYQSRNKNSVA, NASTRYS, QQYHRLPLS [GP_Gibbs] = 600 pM (6 of 6 replicates)
- KLLQSELDESRNDNSVA, NASHRLS, QQYHRLPLS [GP_Gibbs] = 3.2 nM (6 of 6 replicates)
- NLSISMLHESINKHSVA, EVRTREN, QQYDRLPLS [En_HC] = 330 nM (2 of 6 replicates)
- KISQMSTIESITHNSVA, QTSTREQ, QQYDRLPLS [En_HC] = 4.5 nM (6 of 6 replicates)
- MISQSFLIGMKAKNSVA, QTNTREE, QQYDRLPLM [En_HC] = 1.6 nM (6 of 6 replicates)
- TISQVMNTLTRHGNNVA, DLQERES, QQYERLPLS [En_Gen] = 24 nM (6 of 6 replicates)
- TISHSTDLESVHKNSIA, DLMTRES, QQYHRLPLS [En_HC] = 2.3 nM (6 of 6 replicates)
- MVSQLMLWGHLAKNSIA, EAQTRIN, QQYDRLPLF [En_Gen] = 140 nM (4 of 6 replicates)
- KLSQHVGYESRNKSRVA, DNSTRES, QQYDRLPLS [En_HC] = 210 nM (1 of 6 replicates)
- NFSQMVLTGLTLKNSVA, HASTREE, QQYHRLPLI [En_HC] = 8.3 nM (6 of 6 replicates)
- TISQSVLMTGLNRNNVA, QAEERLE, QQYHRLPLS [En_HC] = 2.3 nM (6 of 6 replicates)
- KLTMTYQHTSRNKNNIA, ERSTREE, QQYHHLPLS [En_HC] = 2.3 nM (6 of 6 replicates)
- KVSQSMLYESRNKNNVA, EASQREQ, QSYHRLPLS [GP_Gibbs] = 1.3 nM (6 of 6 replicates)
- KLSSITGHMSMAKNNVA, EMVTREN, QQYNRLPLS [En_Gen] = 4.8 nM (6 of 6 replicates)
- MIAESVGYQSRNKNSVA, DNSTRGD, QCYDRLPLS [En_HC] = 760 nM (6 of 6 replicates)
- VLSDTIENWADEADNIA, DATETSG, QQYYRLPLS [En_Gibbs] = 230 nM (4 of 6 replicates)
- SLYEAQQMGGLHTSAIA, DANQQMR, QHYNRLPLA [En_Gibbs] = 30 nM (6 of 6 replicates)
- RMNKFMSGITEAKNSVA, GAEHLAQ, QSYHRLPLS [En_Gibbs] = 3.2 nM (6 of 6 replicates)
- TIGAQLMYGMRNRSNVA, EVSERLN, QQYDRLPLM [En_Gen] = 69 nM (5 of 6 replicates)
- KLLQSVNFGSRALNSVA, QMETRED, QQYHRLPLS [En_HC] = 3.9 nM (6 of 6 replicates)
- KVSQSWLYEQRMKQSVA, NASERES, QQYHRLPLS [GP_Gibbs] = 1.0 nM (6 of 6 replicates)
- KFSGVKEMVNKDQESIA, DAHTMQE, QQYSRLPLA [En_Gibbs] = 4.7 nM (6 of 6 replicates)
- MVNGITDHLSKNTNSVA, ETVTREE, QQYDRLPLS [En_Gen] = 10 nM (6 of 6 replicates)
- KIDQWKLGESVNKNSVA, DASTRMS, QQYHRLPLS [GP_Gibbs] = 690 pM (6 of 6 replicates)
- KLSQEWLYENRNKNNVA, HASKRSS, QQYHRLPLS [GP_Gibbs] = 1.9 nM (6 of 6 replicates)
- TISQITSLFSQTINNVA, EVSTREQ, QQYDRLPLS [En_Gen] = 6.5 nM (6 of 6 replicates)
- SLIPFENQIMKGLNNIA, NTQVRAS, QQYMRLPFV [En_Gibbs] = 2.5 nM (6 of 6 replicates)
- SLTAHVEEAKRAENSVA, EAVMLES, QQYHQLPLM [En_Gibbs] = 36 nM (6 of 6 replicates)
- KLAESVAMTSHHINSVA, QSTTREE, QQYNRLPLS [En_HC] = 3.4 nM (6 of 6 replicates)
- KLLQEVTGHRRNRNSVA, HNSTRED, QQYDRLPLS [En_HC] = nd (0 of 6 replicates)
- KLSISHQVESINKSNVA, EMVNRES, QQYDRLPLS [En_HC] = 34 nM (6 of 6 replicates)

For reference, 6 entries of the list once more:

| CDR-L1 | CDR-L2 | CDR-L3 | group | Kd | replicates with signal |
|---|---|---|---|---|---|
| TISHSTDLESVHKNSIA | DLMTRES | QQYHRLPLS | En_HC | 2.3 nM | 6 of 6 |
| KLSSFHNVETINKSNVA | EMVTREN | QQYDRLPLS | En_HC | 220 nM | 3 of 6 |
| SLYEAQQMGGLHTSAIA | DANQQMR | QHYNRLPLA | En_Gibbs | 30 nM | 6 of 6 |
| MISQSFLIGMKAKNSVA | QTNTREE | QQYDRLPLM | En_HC | 1.6 nM | 6 of 6 |
| SLTAHVEEAKRAENSVA | EAVMLES | QQYHQLPLM | En_Gibbs | 36 nM | 6 of 6 |
| VLSDTIENWADEADNIA | DATETSG | QQYYRLPLS | En_Gibbs | 230 nM | 4 of 6 |